The assay has as its target T1, KPC-2 (Klebsiella pneumoniae, UniProt Q9F663).
T1 construct: made in house
Description: β-lactamase inhibition, spectrophotometric assay of nitrocefin hydrolysis. In kind it is biochemical. From the text:
Hydrolytic inactivation of the β-lactam antibiotics by β-lactamases is the most widespread drug resistant mechanism and the most challenge clinically among Gram-negative bacterial pathogens. Based on the amino acid sequences, the β-lactamases are grouped into four classes (Ambler classification), of which A, C and D are serine hydrolases and B encompasses metallo-β-lactamases. The IC50 of selected derivatives disclosed herein (identified with reference to example number) plus six reference β-lactam or β-lactamase inhibitors were determined against 7 representative β-lactamases of various classes in a standard spectrophotometric assay of nitrocefin hydrolysis. The assay is performed in 384-well plate. The seven recombinant β-lactamases AmpC_AB (from A. baumannii), AmpC_PA (from P. aeruginosa), KPC-2, NDM-1, IMP-1, VIM-1 and OXA 24/40) are expressed and purified. The reaction buffer for class A, C and D enzymes is 100 mM Na2HPO4—KH2PO4 (pH 7.1) plus 0.005% Tween-20, and for class B enzymes 10 μM ZnSO4 is added. […] The 50 μL of reaction solution composed of 2 pM of β-lactamase, 200 μM of nitrocefin and series of 3-fold dilutions of test or control compounds are added by Cybio SELMA system into 384-plate and incubated in dark at 25° C. for 2 hours. The OD490 is read in MC SpectraMax Plus384 plate reader.

By UniProt entry, the sequences of proteins in these tests, tags left out. Residues count along the entry.
UniProt Q9F663, 25-293, looked up, species assumed: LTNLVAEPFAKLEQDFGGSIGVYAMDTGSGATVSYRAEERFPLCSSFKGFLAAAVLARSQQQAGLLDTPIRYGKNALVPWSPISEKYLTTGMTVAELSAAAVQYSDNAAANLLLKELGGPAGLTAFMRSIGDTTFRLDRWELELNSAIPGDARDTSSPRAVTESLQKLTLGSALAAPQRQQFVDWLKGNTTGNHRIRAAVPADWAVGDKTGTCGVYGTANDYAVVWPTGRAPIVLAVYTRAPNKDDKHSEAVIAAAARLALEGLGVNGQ

What is called IC50 is the midpoint of a concentration-inhibition curve. Lower therefore signals inhibition by little substance. The compound `O=C(NC1CCNCC1)[C@@H]1CC[C@@H]2CN1C(=O)N2OS(=O)(=O)O` [Relebactam, reference compound] registered an IC50 of 458 nM. In other words, the sub-micromolar range.

Source of the values: patent US11040987B2 (TenNor Therapeutics Limited, priority 2019, dated 2021).
